# Data as given in patent US20040058168A1, “Method for incorporating anionic molecules into a substrate for increasing dispersibility of anionic molecules” (priority 2002, published 2004).
# Experiment: Test-tube determination of anionic character: dye mixed with organoclay, clean clay or quat in water, centrifuged, judged visually
# Type: physicochemical
# Conditions: Test Tube 3, in water
# Source text: At the outset of the method of the present invention, it must first be determined if a particular chemical ion or molecule will be able to undergo the method of enhancing its dispersibility and thereby its anionic properties as disclosed herein. Thus, a determination must be made (for example, if the ionic character of a certain compound is unknown) whether or not the ion or molecule comprises a useful anionic portion that will react with a cationic compound (such as a quat) which (1) is already reacted onto the surface of a substrate such as a clay or (2) is to be reacted onto the surface of such a substrate after reacting with the anion of interest. Thus, the molecule or ion can be tested in order to determine whether it has an anionic character (and thus can undergo the present method) or a cationic character or a neutral character. In testing certain molecules or ions, the procedure described below was employed.
# Using Jarocol Straw Yellow dye as a representative example, four 1 mg samples of the dye were weighed and placed in 4 test tubes. […]
# The analysis herein was performed visually, since the six samples tested were dyes. […] For example, for a non-dye sample, the clay may be separated from the water, both parts may be taken to dryness, and the IR spectrum of each may be recorded.
smiles,measurement,value
Cc1ccc(N=Nc2c([O-])c(C(=O)O)cc3ccccc23)c(S(=O)(=O)[O-])c1.[Na+].[Na+] [Lithol Rubine B],Solubility of reaction product with quat,highly insoluble reaction product
